The record followed here is PubChem BioAssay AID631 (The Scripps Research Institute Molecular Screening Center, 2007).

Sequences of proteins named here, by UniProt entry; tags and fusion partners are left off. Residues count along the entry.
UniProt P37231, 232-505 limits assumed: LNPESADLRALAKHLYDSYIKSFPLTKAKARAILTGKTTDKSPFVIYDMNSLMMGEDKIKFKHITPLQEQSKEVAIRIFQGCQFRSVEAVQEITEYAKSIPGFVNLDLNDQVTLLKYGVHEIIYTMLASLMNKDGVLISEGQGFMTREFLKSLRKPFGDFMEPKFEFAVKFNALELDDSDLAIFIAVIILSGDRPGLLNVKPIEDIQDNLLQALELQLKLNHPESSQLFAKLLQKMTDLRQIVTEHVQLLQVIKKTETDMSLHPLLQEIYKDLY
UniProt Q15788, whole entry partner: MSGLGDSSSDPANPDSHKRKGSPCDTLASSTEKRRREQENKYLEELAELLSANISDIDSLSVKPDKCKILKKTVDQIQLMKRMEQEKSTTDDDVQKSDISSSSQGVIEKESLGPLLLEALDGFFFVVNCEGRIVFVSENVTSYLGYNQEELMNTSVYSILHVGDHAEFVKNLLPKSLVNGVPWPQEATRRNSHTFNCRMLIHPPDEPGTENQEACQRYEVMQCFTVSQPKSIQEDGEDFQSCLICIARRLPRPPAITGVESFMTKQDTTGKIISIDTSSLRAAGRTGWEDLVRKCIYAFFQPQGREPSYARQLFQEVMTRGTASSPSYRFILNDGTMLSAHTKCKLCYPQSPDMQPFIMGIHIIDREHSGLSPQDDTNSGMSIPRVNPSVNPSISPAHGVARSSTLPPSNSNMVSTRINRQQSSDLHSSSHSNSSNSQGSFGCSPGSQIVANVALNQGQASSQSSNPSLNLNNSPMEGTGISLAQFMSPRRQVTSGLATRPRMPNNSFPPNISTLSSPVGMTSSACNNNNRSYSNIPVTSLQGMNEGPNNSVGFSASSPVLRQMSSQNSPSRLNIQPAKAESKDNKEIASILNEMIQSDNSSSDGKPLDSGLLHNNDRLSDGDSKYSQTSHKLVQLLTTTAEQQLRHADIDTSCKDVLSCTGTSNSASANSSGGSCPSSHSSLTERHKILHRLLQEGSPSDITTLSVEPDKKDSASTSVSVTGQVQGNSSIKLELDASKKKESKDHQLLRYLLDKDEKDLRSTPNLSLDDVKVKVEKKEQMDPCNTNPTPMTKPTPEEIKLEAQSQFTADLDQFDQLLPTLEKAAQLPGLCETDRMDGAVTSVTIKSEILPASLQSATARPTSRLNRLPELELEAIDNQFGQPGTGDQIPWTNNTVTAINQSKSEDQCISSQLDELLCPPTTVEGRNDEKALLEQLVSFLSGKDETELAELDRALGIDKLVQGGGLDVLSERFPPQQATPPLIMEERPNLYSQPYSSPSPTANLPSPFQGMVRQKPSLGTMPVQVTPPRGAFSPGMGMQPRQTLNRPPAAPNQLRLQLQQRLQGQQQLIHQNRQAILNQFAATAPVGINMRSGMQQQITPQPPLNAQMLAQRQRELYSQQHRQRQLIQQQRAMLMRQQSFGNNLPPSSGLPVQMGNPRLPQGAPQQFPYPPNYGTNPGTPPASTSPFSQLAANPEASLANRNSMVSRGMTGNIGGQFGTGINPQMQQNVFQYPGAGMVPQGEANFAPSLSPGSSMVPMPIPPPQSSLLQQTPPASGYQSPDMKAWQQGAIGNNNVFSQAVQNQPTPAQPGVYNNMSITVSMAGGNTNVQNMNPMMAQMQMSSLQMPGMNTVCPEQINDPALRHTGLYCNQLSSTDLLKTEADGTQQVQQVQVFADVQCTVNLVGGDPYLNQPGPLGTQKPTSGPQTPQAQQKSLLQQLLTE

Molecules are shown by their SMILES. Only a part is listed here, and it is no random draw. Calls of active or inactive are those of the source. Cut-off read from the data, not from the text of the source: active = activation above about 19%; inactive = the rest.

The target of this test is Peroxisome proliferator-activated receptor gamma (Homo sapiens) (UniProt P37231). Description: enhancers of SRC-1 binding to PPARgamma – biochemical, primary screen (AID 631).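 Note: 0% = DMSO and 100% = reference agonist.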 The settings on record: PPARgamma-SRC-1 coactivator recruitment biochemical assay; at 8 µM; stronger effect = higher value.
Consider `Cc1cccc(C)c1OP(C)(N)=O` (stereo not given), for which the activation is inactive: -3%.

As for `CC(C)(C)c1ccc(OP(C)(=O)Nc2ccc(SC(F)(F)F)cc2)cc1` (stereo not given), the activation was inactive: 1.1%. As to `O=[N+]([O-])c1ccc2c(c1)C=Nc1ccccc1O2`, the activation is inactive: -2.7%. For `CCOC(=O)c1ccc(NP(C)(=O)Oc2ccccc2)cc1` (stereo not given), the activation was inactive: -3%.

As for `Cc1ccc(NP(C)(=O)Oc2ccccc2)c(C)c1` (stereo not given), the activation was inactive: -2.5%. As for `COc1ccccc1OP(C)(=O)Nc1ccc(C)cc1` (stereo not given), the figure is inactive: 3.2%.

As for `COc1ccc(OP(C)(=O)Nc2cccc(F)c2)cc1` (stereo not given), the activation was inactive: 2.4%. `COc1ccccc1OP(C)(=O)Nc1cc(Cl)ccc1C` (stereo not given): the activation is inactive: 3.7%. The figure for `Cc1cc(C)cc(OP(C)(N)=O)c1` (stereo not given) is inactive: 6.4%. The figure for `CCN(CC)CCCOC(=O)C(O)(c1ccccc1)c1ccccc1` is inactive: 0.2%; for `CP(=O)(Oc1ccccc1)OC(c1ccccc1)C(F)(F)F` (stereo not given) it is inactive: 8.9%; for `Cc1cccc(C)c1OP(C)(=O)Nc1ccc(SC(F)(F)F)cc1` (stereo not given) it is inactive: 2.3%. Take `Cc1cc(C)cc(OP(C)(=O)Nc2ccc(SC(F)(F)F)cc2)c1` (stereo not given): the activation was inactive: 4.5%. Take `CP(=O)(NC(=O)Nc1ccccc1)Oc1ccccc1` (stereo not given): the activation is inactive: 0.3%. As for `CCOP(C)(=S)SCC(=O)NC(C)C(=O)O` (stereo not given), the figure is inactive: 9%; as for `CCOC(=O)c1ccc(NP(C)(=O)Oc2ccc(OC)cc2)cc1` (stereo not given), inactive: 2.2%; as for `CP(=O)(Nc1ccccn1)Oc1ccc(Cl)cc1` (stereo not given), inactive: 3.9%. With `CP(=S)(Nn1cnnc1)Oc1ccccc1` (stereo not given), the activation is inactive: 5.4%.

For the compound `COc1ccccc1OP(C)(=O)Nc1ccccc1` (stereo not given), the activation was inactive: -4.9%. The figure for `CP(=O)(Nc1ccccc1Br)Oc1ccccc1` (stereo not given) is inactive: 11.7%; for `CN1CCCCC1COC(=O)C1(O)c2ccccc2CCc2ccccc21` (stereo not given) it is inactive: 3.1%.

For the compound `COc1ccccc1OP(C)(=O)Nc1c(C)cccc1C` (stereo not given), the activation is inactive: 5.8%.

For the compound `CCCOc1ccc(NP(C)(=O)Oc2ccc(Cl)cc2)cc1` (stereo not given), the activation was inactive: -6.5%. The figure for `CP(=O)(Nc1ccc(SC(F)(F)F)cc1)Oc1ccccc1` (stereo not given) is inactive: -1%. As for `O=[N+]([O-])c1cc([N+](=O)[O-])c(-n2nnc3ccccc32)c([N+](=O)[O-])c1`, the activation is inactive: -1.3%. As for `Cc1nc2ccc3ccccc3c2s1.O=[N+]([O-])c1cc([N+](=O)[O-])c(O)c([N+](=O)[O-])c1`, the figure is inactive: 6.6%. As for `Cc1cc(C)cc(OP(C)(=O)Nc2ccc(C)cc2C)c1` (stereo not given), the figure is inactive: 0.9%; as for `CCOC(=O)c1ccc(NP(C)(=O)Oc2cc(C)cc(C)c2)cc1` (stereo not given), inactive: -5.7%. The figure for `Cc1cc(C)cc(OP(C)(=O)Nc2ccccn2)c1` (stereo not given) is inactive: 3%; for `CP(=O)(Nc1cccc(Br)c1)Oc1ccccc1` (stereo not given) it is inactive: -2.5%; for `Cc1ccc(C)c(NP(C)(=O)Oc2ccccc2)c1` (stereo not given) it is inactive: 2%. Regarding `CC1=NCCc2c1[nH]c1ccccc21.O=[N+]([O-])c1cc([N+](=O)[O-])c(O)c([N+](=O)[O-])c1`, the activation was inactive: 7.6%. As for `COc1ccc(OP(C)(=O)Nc2ccc(SC(F)(F)F)cc2)cc1` (stereo not given), the figure is inactive: -3.9%. The figure for `CCOC(=O)c1ccc(NP(C)(=O)Oc2ccc(F)cc2)cc1` (stereo not given) is inactive: 2%. As for `CCN(CC)CCCOC(=O)C(O)(c1ccccc1)C1CCCCC1` (stereo not given), the figure is inactive: -5.7%; as for `CP(=O)(Nc1ccccc1)Oc1ccc(F)cc1` (stereo not given), inactive: 1.7%; as for `CC(C)c1ccc(OP(C)(=O)Nc2ccc(SC(F)(F)F)cc2)cc1` (stereo not given), inactive: 0.5%. On to `CP(=O)(Nc1ccccc1F)Oc1ccccc1` (stereo not given), for which the activation is inactive: 9.5%. As for `O=C(OCCN1CCN(CCOCc2ccccc2)CC1)C(O)(c1ccccc1)c1ccccc1`, the figure is inactive: -10.9%; as for `CCOP(C)(=S)SCC(=O)NC(C)(CC)C(=O)O` (stereo not given), inactive: 2.4%. The figure for `CP(=O)(Nc1ccc2c(c1)OCCO2)Oc1ccccc1` (stereo not given) is inactive: -4.1%. As for `Cc1ccccc1NP(C)(=O)Nc1ccccc1C`, the figure is inactive: 3.3%; as for `COc1ccc(OP(C)(=O)Nc2cccc(Br)c2)cc1` (stereo not given), inactive: 2.9%. As to `COc1ccc(NP(C)(=O)Oc2ccccc2OC)cc1` (stereo not given), the activation is inactive: 8.1%. As for `CN(C)CCOC(=O)C(O)(c1ccccc1)C1CCCCC1` (stereo not given), the figure is inactive: -0.4%; as for `O=[N+]([O-])c1cc([N+](=O)[O-])c(NCC2CCS(=O)(=O)C2)c([N+](=O)[O-])c1` (stereo not given), inactive: 2.5%; as for `CP(=O)(OC12CC3CC(CC(C3)C1)C2)OC12CC3CC(CC(C3)C1)C2`, inactive: -0.8%. As for `CCOC(=O)c1ccc(NP(C)(=O)Oc2ccc(Cl)cc2)cc1` (stereo not given), the figure is inactive: 0.2%. As for `COc1ccc(OP(C)(=O)Nc2ccc(Br)cc2)cc1` (stereo not given), the figure is inactive: -2.6%; as for `CCN(CC)CC(O)COC(=O)C(O)(c1ccccc1)C1CCCCC1` (stereo not given), inactive: 2.9%; as for `CCc1ccc(OP(C)(=O)Nc2cccnc2)cc1` (stereo not given), inactive: -5.3%. For `CP(=O)(Oc1ccccc1)N1CCOC1=O` (stereo not given), the activation was inactive: -7%. With `COc1ccccc1OP(C)(=O)Nc1c(C)n(C)n(-c2ccccc2)c1=O` (stereo not given), the activation is inactive: 4.7%. The figure for `CP(=O)(Nc1ccc(Cl)cc1)Oc1ccc(F)cc1` (stereo not given) is inactive: 5.3%. For the compound `COc1ccccc1OP(C)(=O)Nc1ccccc1Br` (stereo not given), the activation was inactive: 0.3%. As for `CC(C)(C)c1ccc(OP(C)(=O)O)cc1`, the figure is inactive: 3.9%; as for `CN(C)C(=O)c1c([N+](=O)[O-])cc([N+](=O)[O-])cc1[N+](=O)[O-]`, inactive: 6%; as for `CN(C)CCOC(=O)C(O)(c1ccccc1)C1CCCC1` (stereo not given), inactive: 3.9%.

For `COc1ccc(OP(C)(=O)Nc2ccccn2)cc1` (stereo not given), the activation is inactive: 4.9%. The figure for `Cc1c(NP(C)(=O)Oc2ccc(C(C)C)cc2)c(=O)n(-c2ccccc2)n1C` (stereo not given) is inactive: -0.9%; for `O=[N+]([O-])c1cc([N+](=O)[O-])c(Nc2ccccn2)c([N+](=O)[O-])c1` it is inactive: 8%. In the case of `CCc1ccc(OP(C)(=O)O)cc1`, the activation was inactive: -4.5%. As for `COc1ccccc1OP(C)(=O)Nc1ccc(C)cc1C` (stereo not given), the figure is inactive: 1.4%; as for `CP(=O)(Nc1ccccn1)Oc1ccccc1` (stereo not given), inactive: 2.1%. The figure for `Cc1cc(C)cc(OP(C)(=O)Nc2cccc(C(F)(F)F)c2)c1` (stereo not given) is inactive: 12.2%; for `COc1ccc(OP(C)(=O)Nc2ccccc2Br)cc1` (stereo not given) it is inactive: 4.4%; for `COc1ccccc1OP(C)(=O)Nc1ccc(C)c(C)c1` (stereo not given) it is inactive: 5.4%. As for `Cc1nc2ccc3ccccc3c2o1.O=[N+]([O-])c1cc([N+](=O)[O-])c(O)c([N+](=O)[O-])c1`, the figure is inactive: -5%. With `CP(=O)(Nc1ccc(Cl)cc1Cl)Oc1ccccc1` (stereo not given), the activation was inactive: 3.7%. As to `CP(=O)(OCCOc1ccccc1)OCCOc1ccccc1`, the activation is inactive: -4.5%.
